Protein sequences, listed by entry. Tags and fused reporters are not part of them. Lines headed by an entry give the natural chain unless they say otherwise; changes in a name come on top.
UniProt Q92843: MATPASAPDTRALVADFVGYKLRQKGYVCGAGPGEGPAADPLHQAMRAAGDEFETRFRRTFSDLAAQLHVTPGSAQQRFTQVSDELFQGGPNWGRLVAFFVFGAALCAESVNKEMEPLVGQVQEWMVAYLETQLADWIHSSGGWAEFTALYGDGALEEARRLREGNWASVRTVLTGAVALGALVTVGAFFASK

This is a selection; strong and weak results do not stand in their true shares. The source made the active and inactive calls. Rule as the data show it: active = inhibition above about 40%.
Each compound was assayed against Bcl-2-like protein 2 (Homo sapiens) (UniProt Q92843) (assay: inhibitors of Bim binding to Bcl-W, primary screen, biochemical, multiplexed, bead-based flow cytometry (AID 952;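 also: 0% = bound tracer without compound and 100% = peptide blocker; higher means less fluorescent Bim peptide bound to Bcl-W beads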)). Settings: Bim peptide-Bcl-W binding, at 10 µM, hits give high values.
With COc1ccc(N/C(=N/P(=O)(N2CCOCC2)N2CCOCC2)N2CCOCC2)cc1 the inhibition was inactive: -3%.
In the case of COc1ccc2nc(NP(=O)(c3ccccc3)c3ccccc3)sc2c1, the inhibition is reported as inactive: -1%.
With O=C(OC1CN2CCC1CC2)C12CC3CC(CC(C3)C1)C2 (centres undefined) the inhibition was inactive: -1%.
For Cc1cc(=O)[nH]c(N[N+](=O)[O-])n1, the inhibition was inactive: -2%.
With Cc1c2c(nc3ccccc13)SC(C(Cl)Cl)C2 (centres undefined) the inhibition was inactive: -4%.
In the case of CC(C)NC(=O)NP(=O)(Oc1ccccc1)Oc1ccccc1, the inhibition is reported as inactive: -3%.
With CCN(CC)C(=S)SC(NC=O)C(Cl)(Cl)Cl (centres undefined) the inhibition was inactive: -1%.
With O=[N+]([O-])c1cc([N+](=O)[O-])c(-c2ccn[nH]2)s1 the inhibition was inactive: -2%.
With ClCCSc1nnc(-c2cccnc2)o1 the inhibition was inactive: -6%.
For Cc1ccc2nc3c(c(C)c2c1)CC(C(Cl)Cl)S3 (centres undefined), the inhibition was inactive: -4%.
With O=P(Nc1ccccn1)(c1cccc2ccccc12)c1cccc2ccccc12 the inhibition was inactive: -2%.
With Cc1cc(SC(NC=O)C(Cl)(Cl)Cl)ncn1 (centres undefined) the inhibition was inactive: -3%.
In the case of Cc1cc(SC(NC(=O)c2ccccc2)C(Cl)(Cl)Cl)nc(C(C)C)n1 (centres undefined), the inhibition is reported as inactive: -2%.
With CCC(C)N(CC(C)C)C(=S)SC(NC(C)=O)C(Cl)(Cl)Cl (centres undefined) the inhibition was inactive: 2%.
For O=C(COc1ccccc1)OC1CN2CCC1CC2 (centres undefined), the inhibition was inactive: 0%.
COP1(=S)c2c(C)nn(CCC#N)c2N=C(c2ccc(F)cc2)N1C (centres undefined) was tested, and the inhibition was inactive: 0%.
In the case of CC(C)/C=N\N=C(\N)N[N+](=O)[O-], the inhibition is reported as inactive: -1%.
With CN(C(=O)Cc1ccc(Cl)c(Cl)c1)[C@@H]1CCCC[C@H]1N1CCCC1 the inhibition was inactive: -2%.
In the case of Clc1n[nH]nc1-c1nn[nH][15n]1, the inhibition is reported as inactive: -3%.
For O=P1(Nc2ccccn2)COc2ccccc2OC1, the inhibition was inactive: 0%.
For Cc1ccc(OCC(=O)OC2CN3CCC2CC3)cc1 (centres undefined), the inhibition was inactive: 2%.
With O=P1(Nc2ccc(Br)cn2)COc2ccccc2OC1 the inhibition was inactive: -4%.
In the case of O=P1(Nc2ncccn2)COc2ccccc2OC1, the inhibition is reported as inactive: 0%.
For CN(C)C1(CNC(=O)c2ccc(S(C)(=O)=O)cc2)CCCCC1, the inhibition was inactive: -3%.
Cc1nn(-c2ccccc2)c2c1P(=O)(N1CCOCC1)N(C)C(c1ccccc1)=N2 (centres undefined) was tested, and the inhibition was inactive: 1%.
For CC1CCC(C(C)C)C(OP(=O)(Nc2ccccn2)c2ccccc2)C1 (centres undefined), the inhibition was inactive: 0%.
For O=[N+]([O-])c1ccc2c(c1)nnn2O, the inhibition was inactive: -3%.
In the case of CCOP1(=S)c2c(C)nn(CCC#N)c2N=C(c2ccc(F)cc2)N1C (centres undefined), the inhibition is reported as inactive: -3%.
With CCOP1(=S)c2c(C)nn(CCC#N)c2N=C(c2ccccc2F)N1C (centres undefined) the inhibition was inactive: -1%.
For O=P(Nc1nccs1)(Oc1ccccc1)Oc1ccccc1, the inhibition was inactive: 0%.
With O=P(Nc1nccs1)(c1ccccc1)c1nc2ccccc2s1 (centres undefined) the inhibition was inactive: 0%.
For COc1cc(C2NCCC3(OCCO3)C2(C)C)cc(OC)c1OC (centres undefined), the inhibition was inactive: 3%.
For CCOP(=O)(Nc1cccc2ccccc12)OCC, the inhibition was inactive: -4%.
Cc1ccc(NCCc2c([N+](=O)[O-])cc([N+](=O)[O-])cc2[N+](=O)[O-])cc1 was tested, and the inhibition was inactive: -2%.
Cc1cccc(OCC(=O)OC2CN3CCC2CC3)c1 (centres undefined) was tested, and the inhibition was inactive: 10%.
COc1cc(C(=O)NCC2(N3CCOCC3)CCCCC2)cc(Cl)c1OC(C)C was tested, and the inhibition was inactive: -3%.
With CC(=O)Nc1ccc(Oc2c([N+](=O)[O-])cc([N+](=O)[O-])cc2[N+](=O)[O-])cc1 the inhibition was inactive: 3%.
For CC(C)(C)C(=O)NC(Sc1ccccc1)C(Cl)(Cl)Cl (centres undefined), the inhibition was inactive: 0%.
With O=P1(Nc2nc3ccc(Cl)cc3s2)COc2ccccc2O1 (centres undefined) the inhibition was inactive: 0%.
CCOc1ccc(C2=NCC(CBr)S2)cc1 (centres undefined) was tested, and the inhibition was inactive: 0%.
For O=c1c2cc([N+](=O)[O-])ccc2[nH]c2c([N+](=O)[O-])cc([N+](=O)[O-])cc12, the inhibition was inactive: -1%.
COC(=O)c1cc2c(s1)N=C(c1ccccc1)N(C)P2(=O)N1CCOCC1 (centres undefined) was tested, and the inhibition was inactive: 1%.
With CC(=O)NC(SC(=S)N(CC(C)C)CC(C)C)C(Cl)(Cl)Cl (centres undefined) the inhibition was inactive: -1%.
In the case of Cc1ccc(OP(=O)(Nc2ccccn2)Oc2ccc(C)cc2)cc1, the inhibition is reported as inactive: -1%.
With CCC(=O)N1C2C3N(C(=O)CC)C1C1N(C(=O)CC)C(C(N1C(=O)CC)N3C(=O)CC)N2C(=O)CC the inhibition was inactive: 9%.
With CCNC(=S)/N=C(\N)N[N+](=O)[O-] the inhibition was inactive: 0%.
With O=C(NC1CCS(=O)(=O)C1)NP(=S)(Oc1ccccc1)Oc1ccccc1 (centres undefined) the inhibition was inactive: -1%.
For c1ccc(-c2nn[nH]n2)c(-c2nn[nH]n2)c1, the inhibition was inactive: 12%.
For CCOC(=O)NC(Sc1ccccc1)C(Cl)(Cl)Cl (centres undefined), the inhibition was inactive: -5%.
In the case of C(Cc1nn[nH]n1)Cc1nn[nH]n1, the inhibition is reported as inactive: -3%.
With O=C(OC1CN2CCC1CC2)c1cccc(Cl)c1 (centres undefined) the inhibition was inactive: 0%.
With CC(=O)NC(SC(=S)N(C)C)C(Cl)(Cl)Cl (centres undefined) the inhibition was inactive: -5%.
In the case of O=P(Nc1ccccn1)(c1ccc(Br)cc1)c1ccc(Br)cc1, the inhibition is reported as inactive: 0%.
In the case of c1nnnn1CCn1cnnn1, the inhibition is reported as inactive: 0%.
CC(C)C(=O)NC(Sc1ccccc1)C(Cl)(Cl)Cl (centres undefined) was tested, and the inhibition was inactive: -6%.
In the case of O=P(Nc1nccs1)(c1ccccc1)c1ccccc1, the inhibition is reported as inactive: 0%.
In the case of CC(C)=N/N=C(\N)N[N+](=O)[O-], the inhibition is reported as inactive: -3%.
With CN(C)C(=O)OCCc1n(C)cc[n+]1C the inhibition was inactive: -5%.
For CC1CCN(C(=O)Oc2c(Cl)cc(Cl)c3cccnc23)CC1, the inhibition was inactive: -3%.
With CCN(/C(=N/P(=O)(N1CCOCC1)N1CCOCC1)N1CCOCC1)c1ccc(OC)cc1 the inhibition was inactive: 0%.
In the case of O=[N+]([O-])c1cccc2n[nH]nc12, the inhibition is reported as inactive: 5%.
CC(=O)N1C2C3N(C(C)=O)C1C1N(C(C)=O)C(C(N1C(C)=O)N3C(C)=O)N2C(C)=O was tested, and the inhibition was inactive: 0%.
In the case of Cc1ccc(NP(=O)(Oc2ccccc2)Oc2ccccc2)nc1, the inhibition is reported as inactive: 1%.
In the case of CCc1nc2c(n1)c1c(non1O)c1c2no[n+]1[O-], the inhibition is reported as inactive: 34%.
O=[N+]([O-])c1cc([N+](=O)[O-])c(CCNc2ccccc2)c([N+](=O)[O-])c1 was tested, and the inhibition was inactive: 4%.
With COc1ccc(C2=NCC(CBr)S2)cc1 (centres undefined) the inhibition was inactive: 0%.
For O=[N+]([O-])c1ncn(CCn2ncnc2[N+](=O)[O-])n1, the inhibition was inactive: 0%.
CCN(N=Nc1nonc1N)c1nonc1N was tested, and the inhibition was inactive: -5%.
In the case of Cc1cc(SC(NC(=O)c2ccc(F)cc2)C(Cl)(Cl)Cl)ncn1 (centres undefined), the inhibition is reported as inactive: -6%.
In the case of CCOP(=O)(Nc1ccccc1)OCC, the inhibition is reported as inactive: 1%.
For CC(C)CC(=O)NC(Sc1ccc(Cl)cc1)C(Cl)(Cl)Cl (centres undefined), the inhibition was inactive: 7%.
With Oc1ccccc1CNc1ccccn1 the inhibition was inactive: -2%.
For O=C(NC(Sc1ccncn1)C(Cl)(Cl)Cl)c1ccccc1 (centres undefined), the inhibition was inactive: -5%.
For Cc1c2non([O-])c-2c(C)[n+](=O)[n+]1[O-], the inhibition was inactive: 1%.
With COc1ccccc1OP(=O)(Nc1ccc(C)cn1)Oc1ccccc1OC the inhibition was inactive: 1%.
In the case of CN1CCCC(OC(=O)C(c2ccccc2)c2ccccc2)C1 (centres undefined), the inhibition is reported as inactive: -2%.
Clc1ccc(Cl)c(NC2=NCC(CBr)S2)c1 (centres undefined) was tested, and the inhibition was inactive: -1%.
For NC(=O)c1cc([N+](=O)[O-])cc([N+](=O)[O-])c1N, the inhibition was inactive: 0%.
Cc1ccc(N/C(=N/P(=O)(N2CCOCC2)N2CCOCC2)N2CCOCC2)cc1 was tested, and the inhibition was inactive: -1%.

From PubChem BioAssay AID952 (NMMLSC, 2007)
